Data taken from patent US20170248602A1 (ALLERGAN, published 2017).
Numbering of substitutions follows the chain as printed.

B1: α-SNAP-25 mouse monoclonal antibody 1D3B8 (antibody, V domains shown)
VH: QVKLQESGAELVKPGASVKISCKASGYIFTDHALHWVRQKPEQGLEWIGYIFPGNGNIEYNEKFKGKATLTADKSSSTAYMQLNSLTSGDSAMYFCKKMDYWGQGTTVTVSS
VL: DVLMTQTPLSLPVSLGDQASISCRSSQSIVHSNGNTYLEWYLQKPGQSPKLLIYKVSNRFSGVPDRFSGSGSGTDFTLKISRVEAEDLGVYYCFQGSHVPPTFGAGTKLELKR
B2: α-SNAP-25 mouse monoclonal antibody 2E2A6 (antibody, V domains shown)
VH: QVQLQQSDAELVKPGASVKISCRASGYTFTDHSIHWVKQQPGQGLEWIGYIFPGNGNIEYNDKFKGKATLTADKSSGTAYMQLNSLTSEDSAVYFCKRMGYWGQGTSVTVSS
VL: DVLMTQTPLTLSVTIGQPASISCKSSQSLLYTNGKTYLTWLFQRPGQSPKRLIYLVSELDSGVPDRFSGSGSGTDFTLEITRVEAEDLGVYYCLQSAHFPFTFGSGTKLEIKR
B3: α-SNAP-25 mouse monoclonal antibody 3C1A5 (antibody, V domains shown)
VH: QVKLQESGAELVKPGASVKISCKASGYTFTDHSIHWVKQKPGQGLEWIGYLFPGNGNFEYNEKFKGKATLTADKSSSTVYMYLNSLTSEDSAVYFCKRMGYWGQGTTVTVSS
VL: B2 VL with L3V, Y31N, F42I, K50Q, E58K, E79K, T81S, A97S

Target: SNAP-25 peptide comprising amino acids 134-206 of SEQ ID NO:5 (human)
Experiment: SPR (BIAcore 3000), peptide on CM5 chip

Binder | binding result
B1 | no binding (tested: 125 nM)
B2 | no binding (tested: 10 µM)
B3 | no binding (tested: 100 nM)
